One test has as its target Delta opioid (Homo sapiens (Human), UniProt P41143). As to the kind of experiment: Receptor binding, Delta opioid.
The target in test [1] is NOP (Nociceptin Receptor) (Homo sapiens (Human), UniProt P41146). As to the kind of experiment: Receptor binding, NOP.

Take `O=C1CN2c3c(cccc3[C@@H]3CN(CCCOc4ccc(F)cc4)CC[C@@H]32)N1` [Example 1, (6bR,10aS)-8-(3-(4-fluorophenoxy)propyl)-6b,7,8,9,10,10a-hexahydro-1H-pyrido[3′,4′:4,5]pyrrolo[1,2,3-de]quinoxalin-2(3H)-one]: the “Ki (nM) or maximum inhibition, Delta opioid” value at Delta opioid is given as “No inhibition”. The “Ki (nM) or maximum inhibition, NOP (Nociceptin Receptor)” value in test [1] is reported as “No inhibition”.

The record behind these values is US12023331B2 (priority 2018, dated 2024).
